# From patent US20260382605A1, “REVERSIBLE MACROCYCLIC KINASE INHIBITORS” (published 2026)
# By UniProt entry, the sequences of proteins in these tests, tags left out. Residues count along the entry.
# UniProt P07949, 29-1114 limits assumed: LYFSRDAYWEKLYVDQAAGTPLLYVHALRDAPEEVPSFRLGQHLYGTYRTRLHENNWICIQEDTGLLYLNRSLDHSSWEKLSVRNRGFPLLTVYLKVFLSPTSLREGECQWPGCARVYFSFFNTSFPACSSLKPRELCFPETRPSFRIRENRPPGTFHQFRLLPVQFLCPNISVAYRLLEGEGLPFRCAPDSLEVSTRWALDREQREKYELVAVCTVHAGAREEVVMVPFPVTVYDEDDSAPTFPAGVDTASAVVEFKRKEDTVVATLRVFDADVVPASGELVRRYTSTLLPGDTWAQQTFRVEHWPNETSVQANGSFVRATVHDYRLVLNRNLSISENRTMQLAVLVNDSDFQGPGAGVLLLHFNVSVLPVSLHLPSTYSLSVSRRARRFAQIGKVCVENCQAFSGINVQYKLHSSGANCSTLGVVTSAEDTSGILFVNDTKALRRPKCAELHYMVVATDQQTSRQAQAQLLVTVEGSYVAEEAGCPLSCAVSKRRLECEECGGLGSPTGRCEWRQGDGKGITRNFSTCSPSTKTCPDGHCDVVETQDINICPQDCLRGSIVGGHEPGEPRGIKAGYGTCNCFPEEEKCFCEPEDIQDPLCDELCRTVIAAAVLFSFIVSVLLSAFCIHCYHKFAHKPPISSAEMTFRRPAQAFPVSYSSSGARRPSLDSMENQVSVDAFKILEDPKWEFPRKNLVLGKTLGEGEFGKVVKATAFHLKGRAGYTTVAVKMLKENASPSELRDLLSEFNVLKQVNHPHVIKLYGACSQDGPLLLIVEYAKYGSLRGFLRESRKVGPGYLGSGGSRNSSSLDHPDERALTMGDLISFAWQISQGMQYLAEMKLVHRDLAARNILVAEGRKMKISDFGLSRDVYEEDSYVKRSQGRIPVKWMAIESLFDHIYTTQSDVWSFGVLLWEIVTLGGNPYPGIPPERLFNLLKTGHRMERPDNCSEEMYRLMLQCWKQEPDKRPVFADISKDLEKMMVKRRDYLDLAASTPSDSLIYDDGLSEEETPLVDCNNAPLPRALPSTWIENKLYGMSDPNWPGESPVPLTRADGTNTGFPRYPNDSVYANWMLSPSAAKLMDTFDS
# UniProt P07947, whole entry: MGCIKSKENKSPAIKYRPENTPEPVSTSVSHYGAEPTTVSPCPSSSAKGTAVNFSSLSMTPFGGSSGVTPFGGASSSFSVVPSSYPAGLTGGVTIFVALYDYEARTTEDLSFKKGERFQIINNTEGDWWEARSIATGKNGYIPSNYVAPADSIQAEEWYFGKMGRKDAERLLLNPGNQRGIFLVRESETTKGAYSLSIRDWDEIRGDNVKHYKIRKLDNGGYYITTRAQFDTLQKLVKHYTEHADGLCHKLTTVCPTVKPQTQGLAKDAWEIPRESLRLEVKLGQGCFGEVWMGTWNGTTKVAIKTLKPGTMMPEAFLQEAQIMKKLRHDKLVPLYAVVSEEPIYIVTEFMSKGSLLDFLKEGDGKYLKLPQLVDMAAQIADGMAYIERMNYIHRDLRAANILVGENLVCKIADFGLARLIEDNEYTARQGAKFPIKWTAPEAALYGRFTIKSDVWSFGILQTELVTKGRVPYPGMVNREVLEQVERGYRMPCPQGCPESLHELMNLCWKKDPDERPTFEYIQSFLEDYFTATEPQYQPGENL
# UniProt P12931, whole entry: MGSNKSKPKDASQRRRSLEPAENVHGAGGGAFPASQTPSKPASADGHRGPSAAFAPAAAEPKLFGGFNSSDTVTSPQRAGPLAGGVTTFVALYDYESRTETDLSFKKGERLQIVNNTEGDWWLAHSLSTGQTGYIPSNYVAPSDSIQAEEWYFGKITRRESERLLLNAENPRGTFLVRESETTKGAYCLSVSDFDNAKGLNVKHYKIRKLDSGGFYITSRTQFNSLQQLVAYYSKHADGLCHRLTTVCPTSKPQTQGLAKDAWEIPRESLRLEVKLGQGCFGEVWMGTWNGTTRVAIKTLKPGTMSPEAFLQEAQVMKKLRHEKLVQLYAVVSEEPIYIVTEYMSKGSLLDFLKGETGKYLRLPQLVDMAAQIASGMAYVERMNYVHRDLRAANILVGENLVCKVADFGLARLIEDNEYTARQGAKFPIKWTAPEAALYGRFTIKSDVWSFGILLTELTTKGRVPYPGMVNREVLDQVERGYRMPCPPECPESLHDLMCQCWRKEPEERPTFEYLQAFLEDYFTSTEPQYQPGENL
# UniProt P06239, whole entry: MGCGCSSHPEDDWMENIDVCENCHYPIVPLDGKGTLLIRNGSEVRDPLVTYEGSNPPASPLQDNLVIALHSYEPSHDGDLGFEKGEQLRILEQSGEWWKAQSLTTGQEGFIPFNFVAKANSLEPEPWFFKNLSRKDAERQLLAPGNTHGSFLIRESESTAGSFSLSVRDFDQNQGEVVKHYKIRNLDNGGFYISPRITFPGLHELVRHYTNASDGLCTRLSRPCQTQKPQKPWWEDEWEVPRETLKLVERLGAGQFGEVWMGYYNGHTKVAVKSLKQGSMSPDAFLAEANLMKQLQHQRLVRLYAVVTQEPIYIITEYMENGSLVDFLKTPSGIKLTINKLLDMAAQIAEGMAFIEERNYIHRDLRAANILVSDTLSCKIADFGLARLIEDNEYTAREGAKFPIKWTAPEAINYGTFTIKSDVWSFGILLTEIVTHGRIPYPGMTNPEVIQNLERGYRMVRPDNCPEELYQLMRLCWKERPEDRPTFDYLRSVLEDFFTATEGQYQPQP
# UniProt P00533, 25-1210 limits assumed: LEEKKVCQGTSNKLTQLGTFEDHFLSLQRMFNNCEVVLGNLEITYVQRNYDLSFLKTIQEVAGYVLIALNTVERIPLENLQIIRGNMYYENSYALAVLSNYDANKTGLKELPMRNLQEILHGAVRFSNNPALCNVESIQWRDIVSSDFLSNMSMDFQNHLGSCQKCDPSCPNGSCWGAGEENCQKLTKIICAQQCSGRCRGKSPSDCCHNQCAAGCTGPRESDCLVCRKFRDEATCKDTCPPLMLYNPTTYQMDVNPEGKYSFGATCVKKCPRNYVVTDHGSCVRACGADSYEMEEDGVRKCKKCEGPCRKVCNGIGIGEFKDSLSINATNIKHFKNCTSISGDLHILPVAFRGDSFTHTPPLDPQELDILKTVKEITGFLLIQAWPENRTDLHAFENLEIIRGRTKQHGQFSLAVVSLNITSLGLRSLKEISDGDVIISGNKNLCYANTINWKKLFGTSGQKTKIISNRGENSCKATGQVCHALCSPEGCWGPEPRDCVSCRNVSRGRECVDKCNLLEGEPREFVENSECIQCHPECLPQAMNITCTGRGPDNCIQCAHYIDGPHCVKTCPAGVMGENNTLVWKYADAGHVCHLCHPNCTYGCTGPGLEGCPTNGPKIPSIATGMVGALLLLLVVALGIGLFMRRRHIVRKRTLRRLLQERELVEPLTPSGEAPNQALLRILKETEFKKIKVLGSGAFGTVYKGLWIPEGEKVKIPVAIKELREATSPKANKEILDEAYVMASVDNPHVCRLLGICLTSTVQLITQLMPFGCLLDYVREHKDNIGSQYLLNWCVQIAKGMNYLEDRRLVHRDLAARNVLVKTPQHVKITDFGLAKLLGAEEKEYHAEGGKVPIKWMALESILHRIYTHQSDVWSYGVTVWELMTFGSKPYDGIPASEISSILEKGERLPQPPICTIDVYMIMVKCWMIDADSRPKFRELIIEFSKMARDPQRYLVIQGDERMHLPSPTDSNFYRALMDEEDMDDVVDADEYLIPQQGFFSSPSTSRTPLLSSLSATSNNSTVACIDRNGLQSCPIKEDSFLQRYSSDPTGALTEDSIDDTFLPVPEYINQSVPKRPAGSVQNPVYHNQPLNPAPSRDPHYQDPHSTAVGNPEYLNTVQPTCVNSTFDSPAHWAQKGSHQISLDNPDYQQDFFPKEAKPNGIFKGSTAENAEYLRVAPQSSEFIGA
# UniProt P08581, 25-1390 limits assumed: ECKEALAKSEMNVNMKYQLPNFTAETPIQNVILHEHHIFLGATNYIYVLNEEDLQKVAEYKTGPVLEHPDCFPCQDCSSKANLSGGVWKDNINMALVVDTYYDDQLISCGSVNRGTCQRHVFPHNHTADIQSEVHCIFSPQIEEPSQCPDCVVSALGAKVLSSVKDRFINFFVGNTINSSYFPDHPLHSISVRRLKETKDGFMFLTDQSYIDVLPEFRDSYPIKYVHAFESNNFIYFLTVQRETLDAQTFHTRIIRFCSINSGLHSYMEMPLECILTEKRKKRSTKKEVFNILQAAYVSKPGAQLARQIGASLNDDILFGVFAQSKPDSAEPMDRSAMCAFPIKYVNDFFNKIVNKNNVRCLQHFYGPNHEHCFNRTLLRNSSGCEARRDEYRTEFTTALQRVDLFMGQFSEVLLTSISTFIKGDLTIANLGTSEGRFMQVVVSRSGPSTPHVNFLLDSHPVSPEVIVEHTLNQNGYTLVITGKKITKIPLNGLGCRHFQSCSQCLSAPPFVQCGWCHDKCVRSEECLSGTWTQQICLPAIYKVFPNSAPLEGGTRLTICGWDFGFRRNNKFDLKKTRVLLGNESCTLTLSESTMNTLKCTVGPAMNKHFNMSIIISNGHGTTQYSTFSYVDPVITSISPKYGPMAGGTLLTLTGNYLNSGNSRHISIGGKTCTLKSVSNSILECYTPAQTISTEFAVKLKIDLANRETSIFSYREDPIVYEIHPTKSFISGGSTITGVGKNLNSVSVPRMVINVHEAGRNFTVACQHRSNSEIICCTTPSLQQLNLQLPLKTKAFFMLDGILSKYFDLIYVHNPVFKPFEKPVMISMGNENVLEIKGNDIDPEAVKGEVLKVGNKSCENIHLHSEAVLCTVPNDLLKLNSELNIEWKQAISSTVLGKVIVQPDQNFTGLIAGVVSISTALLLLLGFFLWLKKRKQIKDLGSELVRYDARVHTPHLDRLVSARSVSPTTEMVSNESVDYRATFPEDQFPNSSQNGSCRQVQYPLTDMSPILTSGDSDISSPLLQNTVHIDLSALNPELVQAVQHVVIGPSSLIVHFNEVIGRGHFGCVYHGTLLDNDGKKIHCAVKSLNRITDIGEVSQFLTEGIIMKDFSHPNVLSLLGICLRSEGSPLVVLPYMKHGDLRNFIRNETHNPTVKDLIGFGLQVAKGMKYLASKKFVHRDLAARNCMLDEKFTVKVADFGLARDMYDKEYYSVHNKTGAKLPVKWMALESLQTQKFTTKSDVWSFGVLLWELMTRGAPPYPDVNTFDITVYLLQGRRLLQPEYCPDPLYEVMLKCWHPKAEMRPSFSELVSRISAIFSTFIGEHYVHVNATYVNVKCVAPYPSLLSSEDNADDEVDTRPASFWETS
# UniProt P30530, 26-894 limits assumed: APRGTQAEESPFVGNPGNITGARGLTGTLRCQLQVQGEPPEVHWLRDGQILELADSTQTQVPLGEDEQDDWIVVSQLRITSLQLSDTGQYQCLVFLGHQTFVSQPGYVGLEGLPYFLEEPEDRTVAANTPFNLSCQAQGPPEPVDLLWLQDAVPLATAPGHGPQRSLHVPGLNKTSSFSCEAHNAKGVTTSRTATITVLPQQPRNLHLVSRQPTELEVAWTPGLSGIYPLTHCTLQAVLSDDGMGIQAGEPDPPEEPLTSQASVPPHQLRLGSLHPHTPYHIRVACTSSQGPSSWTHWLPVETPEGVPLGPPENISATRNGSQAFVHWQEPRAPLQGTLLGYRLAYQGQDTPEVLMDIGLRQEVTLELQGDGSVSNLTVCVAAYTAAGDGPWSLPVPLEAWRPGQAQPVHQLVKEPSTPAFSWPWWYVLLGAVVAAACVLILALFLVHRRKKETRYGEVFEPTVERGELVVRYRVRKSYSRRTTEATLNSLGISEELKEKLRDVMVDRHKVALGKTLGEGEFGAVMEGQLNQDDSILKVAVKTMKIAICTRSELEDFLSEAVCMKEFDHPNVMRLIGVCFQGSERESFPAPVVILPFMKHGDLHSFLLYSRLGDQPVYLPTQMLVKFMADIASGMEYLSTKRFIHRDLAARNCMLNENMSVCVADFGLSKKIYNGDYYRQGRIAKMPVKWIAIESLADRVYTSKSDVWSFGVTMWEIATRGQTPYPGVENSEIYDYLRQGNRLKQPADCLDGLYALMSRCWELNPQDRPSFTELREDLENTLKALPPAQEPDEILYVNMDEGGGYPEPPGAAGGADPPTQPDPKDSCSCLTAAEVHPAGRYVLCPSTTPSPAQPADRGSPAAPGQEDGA
# Tests used:
# [1] = target: T1, RET (Homo sapiens, UniProt P07949); assay: Binding kinetics assay (surface plasmon resonance) RET; conditions: SPR, 22 °C
# Description: (§1) Binding Kinetics Assay wt-BTK, BTK C481S, LCK, FGFR1, FLT3, PDGFR-β, FMS, LYN, MEK1, AUR-B. ITK. VEGFR, EGFR, FGFR3, AXL, c-MET, SRC, YES, ABL, RET and IGFR1 (Surface Plasmon Resonance)
# (§2) Streptavidin-coated chips (Cat. No. BR100531), disposables and maintenance kits for Biacore were purchased from Cytiva (Eindhoven, The Netherlands). Biotinylated wt-BTK enzym (Carna Biosciences, cat. no. 08-480-20N), BTK C481S (Carna Biosciences, cat. no. 08-417-20N), LCK (Carna Biosciences, cat. no. 08-470-20N), FGFR1 (Carna Biosciences, cat. no. 08-435-20N), FLT3 (Carna Biosciences, cat. no. 08-454-20N), PDGFR-β (Carna Biosciences, cat. no. 08-458-20N), FMS (Carna Biosciences, cat. no. 08-455-20N), LYN (Carna Biosciences, cat. no. 08-471-20N), MEK1 (Carna Biosciences, cat. no. 07-441-10-20N), AUR-B (Carna Biosciences, cat. no. 05-402-21N), ITK (Carna Biosciences, cat. no. 08-481-20N), VEGFR (Carna Biosciences, cat. no. 08-491-20N), EGFR (Carna Biosciences, cat. no. 08-415-20N), FGFR3 (Carna Biosciences, cat. no. 08-433-20N), AXL (Carna Biosciences, cat. no. 08-407-20N), c-MET (Carna Biosciences, cat. no. 08-451-20N), SRC (Carna Biosciences, cat. no. 08-473-20N), YES (Carna Biosciences, cat. no. 08-475-20N), ABL (Carna Biosciences, cat. no. 08-401-20N), RET (Carna Biosciences, cat. no. 08-459-20N) or IGFR1 (Carna Biosciences, cat. no. 08-441-20N) were immobilized on a streptavidin-coated chip to a level of about 8000 resonance units (RU) using Biacore buffer (50 mM Tris pH 7.5, 0.05% (v/v) Tween-20, 150 mM NaCl and 5 mM MgCl2)+1 mM TCEP. Remaining streptavidin was blocked with biocytin. Immobilization was performed at 4 °C. Subsequent assay steps were conducted at 22 °C. After changing buffer to Biacore buffer with 1% (v/v) dimethylsulfoxide (DMSO), a pre-run was performed for a period of at least 30 min at a flow rate of 30 μl/min to obtain a stable surface. The kinetic constants of the compounds were determined with single cycle kinetics with five consecutive injections with an increasing compound concentration with ranges of 3.16-316 nM. Experiments were performed with an association time of 100 s per concentration and a dissociation time of 1200 s, except for compounds with a long target residence time, such as irreversible inhibitors, where dissociation time was increased. To circumvent problems of mass transport limitation, a flow rate of 30 μl/min was used. A blank run with the same conditions was performed before the compound was injected. The SPR sensorgrams were analyzed with Biacore Evaluation Software by using a method of double referencing. First the reference channel was subtracted from the channel containing immobilized protein. Subsequently, the reference curve obtained with buffer injections was subtracted. The resulting curve was fitted with a 1:1 binding model. Compounds that bound according to an induced fit model were fitted with a two-state reaction model. The kinetic constants (ka, ka, KD) of duplicates were geometrically averaged. Target residence time (τ) for the 1:1 binding model was calculated from the dissociation constant kd with the formula T=1/kd. Target residence for an induced fit model was calculated as described (Tummino and Copeland, 2008).
# [2] = target: T1, RET; assay: Biochemical kinase assay RET (33P-ATP filter binding); conditions: read-out: IC50 value; RET 2 nM, 10 μM ATP, 20 min pre-incubation, 120 min reaction
# Protocol: Biochemical Kinase Assay RET
# The kinase activity of RET was assayed at Reaction Biology Corporation. The substrate in the RET reaction, TRK-C derived peptide (Genscript, Cat. #U4552FL280_1), was prepared in fresh reaction buffer (20 mM HEPES (pH 7.5), 10 mM MgCl2, 1 mM EGTA, 0.01% Brij35, 0.02 mg/mL BSA, 0.1 mM Na3VO4, 2 mM DTT, 1% DMSO). RET (Invitrogen, Cat. #PV3819) was delivered into the substrate solution and mixed gently. The final concentrations of RET and the substrate in the reaction were 2 nM and 20 μM respectively. Compounds were tested in 10-point concentration/response mode with 3-fold serial dilution steps starting at 10 μM.
# Compounds in 100% DMSO were delivered into the kinase reaction mixture by acoustic liquid delivery technology (ECHO550; nanoliter range) and incubated for 20 min at room temperature. 10 μM [^33P]-ATP (ATP: Sigma, Cat #: A7699; [^33P]-ATP: Hartmann Analytic, Cat #: SCF-301-12) was delivered into the reaction mixture to initiate the reaction. The mixture was incubated for 120 min at room temperature. Radioactivity was detected utilizing a proprietary filter-binding method. Kinase activity data were expressed as the percent remaining activity in test samples compared to vehicle (DMSO) reactions. IC50 values and curve fits were obtained using Prism4Software (GraphPad).
# [3] = system: KG-1 acute myeloid leukemia cells; assay: Cell proliferation assay KG-1; conditions: read-out: IC50 value, KG-1 cells, 72 hours
# Protocol: KG-1 acute myeloid leukemia cells were purchased from American Type Culture Collection (cat. no. CCL-246, ATCC). Frozen stocks were thawed and cells were diluted in IMDM cell culture medium (cat. no. 31980022, Life Technologies), supplemented with 20% (v/v) fetal calf serum and 1% penicillin/streptavidin. 3200 cells per well (in 45 μl) were seeded in a white 384-well culture plate (cat. no. 781080, Greiner Bio-One) and allowed to rest for 24 hours at 37 °C, 95% humidity, and 5% CO2. 5 μl compound solution was added to the cells and incubation was continued for 72 hours (3 days), followed by addition of 24 μl ATPlite 1Step™ (PerkinElmer, Groningen, The Netherlands) solution was added to each well. Luminescence was recorded on an Envision multimode reader. The cell signal at the start of incubation was recorded separately in order to distinguish between cell population growth and cell death. In addition, maximum growth was determined by incubation of a duplicate without compound in the presence of 0.3% DMSO. Percentage growth was used as the main y-axis signal.
# IC50s were fitted by non-linear regression using IDBS XLfit™5 using a 4-parameter logistic curve, yielding a maximum signal, minimum signal, hill-parameter and IC50.
# [4] = target: YES (Homo sapiens, UniProt P07947); assay: Binding kinetics assay (surface plasmon resonance) YES; conditions: SPR, 22 °C
# Description: as §1, §2
# [5] = target: SRC (Homo sapiens, UniProt P12931); assay: Binding kinetics assay (surface plasmon resonance) SRC; conditions: SPR, 22 °C
# Description: as §1, §2
# [6] = system: CCRF-HSB-2 T acute lymphoblastic leukemia cells; assay: Cell proliferation assay CCRF-HSB-2; conditions: read-out: IC50 value, CCRF-HSB-2 cells, 72 hours
# Protocol: (§3) CCRF-HSB-2 T acute lymphoblastic leukemia cells were purchased from Deutsche Sammlung von Mikroorganismen und Zellkulturen (cat. no. ACC 435, DSMZ). Frozen stocks were thawed and cells were diluted in RPMI-1640 cell culture medium (cat. no. 61870036, Life Technologies), supplemented with 10% (v/v) bovine calf serum and 1% penicillin/streptavidin. 3200 cells per well (in 45 μl) were seeded in a white 384-well culture plate (cat. no. 781080, Greiner Bio-One) and allowed to rest for 24 hours at 37 °C, 95% humidity, and 5% CO2. 5 μl compound solution was added to the cells and incubation was continued for 72 hours (3 days), followed by addition of 24 μl ATPlite 1Step™ (PerkinElmer, Groningen, The Netherlands) solution was added to each well. Luminescence was recorded on an Envision multimode reader. The cell signal at the start of incubation was recorded separately in order to distinguish between cell population growth and cell death. In addition, maximum growth was determined by incubation of a duplicate without compound in the presence of 0.3% DMSO. Percentage growth was used as the main y-axis signal. IC50s were fitted by non-linear regression using IDBS XLfit™5 using a 4-parameter logistic curve, yielding a maximum signal, minimum signal, hill-parameter and IC50.
# [7] = system: CTV-1 T acute lymphoblastic leukemia cells; assay: Cell proliferation assay CTV-1; conditions: read-out: IC50 value, CTV-1 cells, 72 hours
# Protocol: as §3, with “CTV-1” for “CCRF-HSB-2”, “40,” for “435,”, “1600” for “3200”
# [8] = target: LCK (Homo sapiens, UniProt P06239); assay: Binding kinetics assay (surface plasmon resonance) LCK; conditions: SPR, 22 °C
# Description: as §1, §2
# [9] = target: EGFR (Homo sapiens, UniProt P00533); assay: Binding kinetics assay (surface plasmon resonance) EGFR; conditions: SPR, 22 °C
# Description: as §1, §2
# [10] = target: c-Met (Homo sapiens, UniProt P08581); assay: Binding kinetics assay (surface plasmon resonance) c-MET; conditions: SPR, 22 °C
# Description: as §1
# as §2, with “First the reference channel was subtracted from the channel containing immobilized protein. Subsequently, the reference curve obtained with buffer injections was subtracted. The resulting curve was fitted with a 1:1 binding model. Compounds that bound according to an induced fit model were fitted with a two-state reaction model. The kinetic constants (ka, ka, KD) of duplicates were geometrically averaged.” left out
# [11] = target: AXL (Homo sapiens, UniProt P30530); assay: Binding kinetics assay (surface plasmon resonance) AXL; conditions: SPR, 22 °C
# Description: as §1, §2
Kd [1] [nM],IC50 [2] [nM],IC50 [3] [nM],IC50 [6] [nM],IC50 [7] [nM],Kd [8] [nM],Target residence time Tau (τ) [8],SMILES,other results
< 5,< 5,< 300,,,,,Nc1ncc2n3c(nc(-c4cnc5[nH]ccc5c4)c13)[C@@H]1CC[C@H](C1)NC(=O)CCOCC/C=C/2,
< 5,< 5,< 300,,,,,Nc1ncc2c3c1c(-c1cnc4[nH]ccc4c1)nn3[C@@H]1CCCN(C1)C(=O)CCCCCC/C=C/2,Kd [4]: 5 to 50 nM; Target residence time Tau (τ) [4]: B (τ between 1 and 3 h); Kd [5]: 5 to 50 nM; Target residence time Tau (τ) [5]: A (τ between 0.2 h and 1 h); Target residence time Tau (τ) [1]: A (τ between 0.2 h and 1 h)
,,,< 50,< 50,< 5,C (τ 3 h),COc1cc(-c2nn3c4c(cnc(N)c24)/C=C/CCOCCC(=O)N[C@H](C)CC3)ccc1NC(=O)c1cc2c(OC)cccc2n1C,
,,,,,,,C[C@@H]1CCn2nc(-c3ccc(OCc4cccc(F)c4)c(Cl)c3)c3c(N)ncc(c32)/C=C/CCCCCC(=O)N1,Kd [9]: 5 to 50 nM; Target residence time Tau (τ) [9]: A (τ between 0.2 h and 1 h); Kd [10]: 50 to 500 nM; Target residence time Tau (τ) [10]: A (τ between 0.2 h and 1 h); Kd [11]: < 5 nM
,,,< 50,< 50,< 5,C (τ 3 h),COc1cc(-c2nn3c4c(cnc(N)c24)/C=C/CCCCCC(=O)N[C@H](C)CC3)ccc1NC(=O)c1cc2c(OC)cccc2n1C,
,,,< 50,< 50,< 5,B (τ between 1 and 3 h),COc1cc(-c2nn3c4c(cnc(N)c24)/C=C/CCCCCCC(=O)N2CCC[C@@H]3C2)ccc1NC(=O)c1cc2c(OC)cccc2n1C,
< 5,< 5,< 300,,,,,Nc1ncc2n3c(nc(-c4cnc5[nH]ccc5c4)c13)[C@@H]1CCC[C@H](C1)NC(=O)CCOCC/C=C/2,Target residence time Tau (τ) [1]: A (τ between 0.2 h and 1 h)
,,,,,,,C[C@@H]1CCn2nc(-c3ccc(NC(=O)c4cccn(-c5ccc(F)cc5)c4=O)cc3F)c3c(N)ncc(c32)/C=C/CCOCCC(=O)N1,Kd [10]: < 5 nM; Target residence time Tau (τ) [10]: B (τ between 1 and 3 h)
